# Most compounds without a hit are left out; they make up all but 3.7% or so of the library.
# A549 viability – counter-screen for Nrf2 inhibitors: cytotoxicity in A549 cells; A549 ARE-Fluc cells, CellTiter-Fluor viability, 18-24 h; Potency, µM (doses to about 46 µM), without a hit: top-dose activity change, negative = cytotoxicity, most hits filed as inhibitors; 390,000 compounds, 0.16% hits; further: potency means the concentration at half of the fitted maximal effect; on the % scale 0 is the no-effect control and ±100 the full control effect
#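 A549 ARE_Fluc cells in 5% FBS OPTI-MEM were exposed to compounds in concentration-response for 18-24 h at 37 deg C. Viability was read by CellTiter-Fluor fluorescence (Ex 405/Em 525) after 30 min, before the luciferase read.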
# Nrf2 activator – Nrf2 pathway activation; 410,000 compounds, 0.31% hits; AREc32 ARE-luciferase reporter (MCF7-derived line), luminescence, 24 h; AID 624171; Potency, µM (highest dose often 46.1 µM), inactives show at the top dose activation, actives largely listed as activators; further: potency means the concentration at half of the fitted maximal effect; % of control where 0% means no effect; nearly all actives have a fitted effect of over 65% in size
#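 Quantitative high-throughput format: AREc32 reporter cells, 1000 per well, received compound by pin transfer and were incubated 24 hr at 37 deg C, 5% CO2, before Steady-Glo luminescence detection.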
# p53 reactivator – re-activators of mutant p53 | H1299 p53-A138V BP100-luciferase reporter, luminescence, 24 h | 320,000 compounds, 0.063% hits | Potency, µM (doses to about 92.2 µM), for the others: top-dose activity change, positive = activation, hits mostly activators; further: potency means the concentration at half of the fitted maximal effect; % of control where 0% means no effect; nearly all actives have a fitted effect of over 45% in size
#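 p53-null H1299 cells stably carrying temperature-sensitive p53-A138V and a BP100-luciferase reporter were pinned with compounds (4-point, 1:5 series) and held 24 hrs at 37 deg C. Luminescence was read 10 min after detection reagent.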
# ClpP mod – qHTS Assay for Activators of ClpP; 340,000 compounds, 1.9% hits; AID 651965, 2013; Potency, µM (titrated, usually from 57.5 µM), inactives show top-dose activity change, negative = active; purified B. subtilis ClpP, FRET peptide cleavage, 20 min; ATP-dependent Clp protease proteolytic subunit (Bacillus subtilis (strain 168)), P80244; active means well fitted falling curve with a large enough effect; inconclusive means small, poorly fitted or top-dose-only effect; inactive means no such curve, though single readings can be large or run the other way; further: potency means the concentration at half of the fitted maximal effect; the source files actives as falling curves though it sought activators and does not explain the sign; nearly all actives have a fitted effect of over 65% in size
#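 Buffer: 100 mM Tris/HCl pH8, 100 mM KCl, 0.05% low protease BSA, 2.5% glycerol, 0.01% Tween-20. ClpP 10 microg/mL final; 20 min RT; delta FRET normalized to ADEP and DMSO controls.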
# Nrf2 block – blocks Nrf2 signaling; 360,000 compounds, 2.1% hits; A549 ARE-Fluc reporter, luciferase luminescence, 18-24 h; Potency, µM (top dose mostly 46 µM), inactives show top-dose activity change, negative = inhibition, most hits filed as inhibitors; AID 504444; further: potency means the concentration at half of the fitted maximal effect; on the % scale 0 is the no-effect control and ±100 the full control effect; nearly all actives have a fitted effect of over 60% in size
#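 Concentration-response testing used A549 ARE_Fluc cells at 5000 cells/well. Following an 18-24 h compound incubation, viability was read by fluorescence (Ex 405/Em 525) and luciferase output by luminescence.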
# miR-21 FLuc – miR-21 reporter, rising signal; Potency, µM (titrated, usually from 38.3 µM), without a hit: at the highest dose reporter change, positive = more light; AID 2288; 340,000 tested, under 10 active; HeLa miR-21 FLuc reporter, luciferase, 48 h; active = well fitted rising curve with a large enough effect; inconclusive = small, poorly fitted or top-dose-only effect; inactive = no such curve, though single readings can be large or run the other way;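 note: % of control where 0% means no effect; miR-21 action dims this reporter so a rising signal means less miR-21 action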
#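 Luminescence from a firefly luciferase reporter carrying a miR-21 binding site downstream, stably expressed under a CMV promoter in HeLa cells that make miR-21 endogenously, reports miRNA modulation after 48 h compound exposure up to approximately 40uM final.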
# Starred values were filed as active, the others as inactive; ? = inconclusive; · = no result. Unless noted, the call rests on the fitted dose curve; in most records, active means well fitted curve in the direction sought with a large enough effect; inconclusive means small, poorly fitted or top-dose-only effect, or another doubt; inactive means no such curve, though single readings can be large; an effect the other way counts as inactive or inconclusive.
SMILES,A549 viability,Nrf2 activator,p53 reactivator,ClpP mod,Nrf2 block,miR-21 FLuc
O=C(CN1CC(=O)Oc2ccccc21)OCC(=O)c1ccc(F)cc1,?,?,-20.4%,·,-5.1%,-0.8%
O=C(CN1CC(=O)Oc2ccccc21)OCC(=O)c1ccc(Br)cc1,?,12.6µM*,·,0.4%,-22.6%,·
CCC1(OC(=O)CN(C)C)C(=O)OCc2c1cc1n(c2=O)Cc2cc3c(N)cccc3nc2-1 (stereo not given),?,-1.3%,·,-0.4%,0.651µM*,·
CCCOc1ccc(NC(=O)CC2C(=O)N(c3ccc(OC)cc3)C(=O)N2CCc2ccncc2)cc1 (stereo not given),-4.6%,4.7%,·,0.4%,-2.5%,5.4%
O=C(O)CCCNc1ccc(S(=O)(=O)Nc2ccccc2C(=O)O)cc1C(=O)O,12.5%,-0.2%,-15.1%,15.8µM*,-15.8%,-2.7%
COc1ccc(NC(=O)Cn2cnc3ccc(S(=O)(=O)N4CCC(C)CC4)cc3c2=O)cc1OC,-9.4%,0.6%,·,-4.5%,-3.2%,4.6%
CCOc1ccc(NC(=O)c2c(NC(=O)c3ccncc3)sc3c2CCC(C(C)(C)C)C3)cc1 (stereo not given),-0.5%,0.4%,·,1.2%,10.6%,-1.8%
CC(C)(C)C1CCc2c(sc(NC(=O)CCC(=O)O)c2C(=O)Nc2ccccc2C(F)(F)F)C1 (stereo not given),?,0.9%,·,-4.4%,18.4µM*,-24.6%
COc1ccc(NC(=O)c2c(NC(=O)c3ccncc3)sc3c2CCC(C(C)(C)C)C3)cc1 (stereo not given),-14.6%,1.5%,·,-0.2%,18.4µM*,0.8%
Cc1ccc(OCc2nc3ccccc3n2Cc2ccccc2Cl)cc1,2.3%,8.3%,·,1.3%,-5.8%,-1.5%
Cc1ccc(-c2c(C(=O)Nc3ccc(F)c(F)c3)oc(=O)c3ccccc23)cc1,16.0%,0.3%,·,-10.8%,?,22.4%
Cc1ccc(Cl)cc1N1CCN(C(CC(C)C)c2nnnn2CC2CCCO2)CC1 (stereo not given),-4.6%,0.1%,1.9%,-1.2%,·,-3.5%
CCCC(c1nnnn1CC1CCCO1)N1CCN(c2cc(Cl)ccc2C)CC1 (stereo not given),?,3.3%,-8.7%,2.7%,25.9µM*,19.3%
Cn1cnc([N+](=O)[O-])c1Sc1nc(N)nc2c1ncn2Cc1ccccc1,-14.2%,7.0%,·,31.6µM*,?,·
CCCn1cnc2c(Sc3c([N+](=O)[O-])ncn3C)nc(N)nc21,-18.3%,7.6%,·,?,-16.7%,·
COc1cccc(Cn2cccc(NC(=O)Nc3cccc(C#N)c3)c2=O)c1,2.1%,-0.1%,2.5%,28.2µM*,?,20.9%
COc1cccc(NC(=O)Nc2cccn(Cc3ccc(C)cc3)c2=O)c1,-13.4%,15.1%,4.4%,2.9%,?,-0.1%
COc1ccc(OC)c(/C=N/NC(=O)c2csc3ccccc23)c1,-0.6%,0.7%,-4.0%,31.6µM*,·,-2.3%
COc1ccc(OC)c(/C=N/NC(=O)c2cc(-c3ccc(C)o3)nc3ccccc23)c1,3.8%,0.2%,-2.7%,163.8%,?,1.0%
Cc1cccc2[nH]c3c(N4CCN(C(=O)c5ccco5)CC4)ncnc3c12,-0.4%,0.5%,4.4%,31.6µM*,?,3.8%
CC(=O)NNc1nc(-c2ccccc2)c2cc(Cl)ccc2n1,·,-0.6%,·,0.4%,·,·
COCCNC(=O)c1cccc(Nc2nc(-c3ccccc3)c3cc(Cl)ccc3n2)c1,?,1.8%,-3.7%,-6.6%,14.6µM*,7.0%
COc1ccccc1-c1cnc(C(O)c2ccc(C(C)(C)C)cc2)[nH]1 (stereo not given),·,-0.4%,·,-24.4%,·,·
CC(=O)c1ccccc1Oc1cc(NN2CCCCC2)c([N+](=O)[O-])cc1[N+](=O)[O-],-19.2%,1.3%,·,-0.7%,25.9µM*,-2.3%

# Entries of single compounds, quoted from the list. Screens in order: A549 viability	Nrf2 activator	p53 reactivator	ClpP mod	Nrf2 block	miR-21 FLuc
# COc1ccc(OC)c(/C=N/NC(=O)c2cc(-c3ccc(C)o3)nc3ccccc23)c1 reads 3.8%	0.2%	-2.7%	163.8%	?	1.0%
# COc1ccc(NC(=O)Cn2cnc3ccc(S(=O)(=O)N4CCC(C)CC4)cc3c2=O)cc1OC reads -9.4%	0.6%	·	-4.5%	-3.2%	4.6%
# COc1cccc(Cn2cccc(NC(=O)Nc3cccc(C#N)c3)c2=O)c1 reads 2.1%	-0.1%	2.5%	28.2µM*	?	20.9%
# COc1ccccc1-c1cnc(C(O)c2ccc(C(C)(C)C)cc2)[nH]1 (stereo not given) reads ·	-0.4%	·	-24.4%	·	·

# Screening data as filed in PubChem.
